{"source": "patent US20260273076A1", "about": "“PHARMACEUTICAL COMPOSITIONS AND METHOD OF TREATMENT OF METASTATIC AND OTHER CANCERS” (Favorite Pharmaceuticals, priority 2023, published 2026)", "key": {"[1]": {"test_system": "A549, HL-60, Raji B, Panc-1, and PC3 cancer cell lines", "conditions": "300 μM, 4-5 h period, 5 cell lines"}, "[2]": {"conditions": "for Concentration in Mouse Plasma: Group 2, 200 mg/kg IV"}}, "note": "Like-named read-outs stand apart in the source and are kept apart here."}
{"substance": "polyethylene glycol octadecyl ether [C18-Ether-PEG-5000]", "values": [{"measurement": "reduction in cell viability", "setting": "[1]", "value": "up to 50%"}]}
{"substance": "polyethylene glycol octadecyl ether [C18-Ether-PEG-1000]", "values": [{"measurement": "Concentration in Mouse Plasma", "setting": "[2]; 3.00 hrs, Animal 3", "value": "BQLa (Below Quantitation Limit (<10,000 ng/mL))"}, {"measurement": "Concentration in Mouse Plasma", "setting": "[2]; 8.00 hrs, Animal 3", "value": "BQLa (Below Quantitation Limit (<10,000 ng/mL))"}, {"measurement": "Concentration in Mouse Plasma", "setting": "[2]; 24.0 hrs, Animal 1", "value": "BQLa (Below Quantitation Limit (<10,000 ng/mL))"}, {"measurement": "Concentration in Mouse Plasma", "setting": "[2]; 24.0 hrs, Animal 2", "value": "BQLa (Below Quantitation Limit (<10,000 ng/mL))"}, {"measurement": "Concentration in Mouse Plasma", "setting": "[2]; 24.0 hrs, Animal 3", "value": "BQLa (Below Quantitation Limit (<10,000 ng/mL))"}, {"measurement": "optimal tolerated dose", "setting": "[2]; mice, preliminary evaluation", "value": 200, "unit": "milligrams per kilo"}, {"measurement": "time out to which CMax was maintained", "setting": "[2]; mice, preliminary evaluation, CMax very rapidly achieved", "value": "approximately 4 hours"}]}
